Results taken from paper PMC9416875.

Biological target: integrin αMβ2 ectodomain with ACID/BASE C-terminal coiled-coil heterodimerization domain (human) (UniProt P11215)
Assay: SPR
Conditions: domain or fragment

Question: Which koff does the source give for “RTX751 (Bordetella pertussis adenylate cyclase toxin, ACT, residues 751-1,706) (from UniProt P0DKX7 751-1706)” here?
Answer: Its koff is 0.0044 s⁻¹.
